Source: US5189023A

By UniProt entry, the sequences of proteins in these tests, tags left out. Residues count along the entry.
UniProt P00797, 67-406 limits assumed: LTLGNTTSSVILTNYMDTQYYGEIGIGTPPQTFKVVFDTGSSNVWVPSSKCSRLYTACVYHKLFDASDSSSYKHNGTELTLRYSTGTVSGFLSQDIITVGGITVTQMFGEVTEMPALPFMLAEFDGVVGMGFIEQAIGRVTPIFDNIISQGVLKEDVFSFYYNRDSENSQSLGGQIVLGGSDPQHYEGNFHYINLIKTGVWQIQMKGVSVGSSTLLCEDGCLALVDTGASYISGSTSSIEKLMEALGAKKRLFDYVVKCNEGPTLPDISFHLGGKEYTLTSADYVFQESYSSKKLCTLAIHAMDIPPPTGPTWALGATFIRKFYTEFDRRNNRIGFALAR

Molecular target: human kidney renin (Homo sapiens, UniProt P00797)
Test: Radioimmunoassay screen for renin inhibitors (angiotensin I generation)
Settings: read-out: IC50 Molar Concentration, purified human plasma angiotensinogen, maleate buffer pH 6.0, one hour at 37° C.
Protocol: The in vitro method for the screening of anti-renin compounds involves, first, angiotensin I generation, and second, the quantitation of the angiotensin I produced by radioimmunoassay.
The incubation medium consisted of 20 μl of purified human plasma angiotensinogen (1); 10 μl of human kidney renin (2); 5 μl of phenylmethylsulfonyl fluoride; 10 μl of disodium EDTA (10 mM); 10 μl of antirenin compound (5×10^-3, 5×10^-4, 5×10^-5) in dimethylformamide, or ethanol and a suitable amount of maleate buffer (77 mM, pH 6.0) to make a final volume of 500 μl. The reaction mixture is incubated for one hour at 37° C. and the enzymatic reaction is stopped by placing the tube in ice-cold water. The angiotensin I generated during the incubation is measured by a radioimmunoassay plasma renin activity kit (Clinical Assays, Inc.).
The incubation medium consisted of either 100 μl aliquots of the above reaction mixture or a standard amount of angiotensin I; 1000 μl of phosphate buffer (100 mM, pH7.6) and 100 μl of (^125 I)angiotensin in a gamma-coat, tube. After three hours of incubation at room temperature, the tubes are decanted, and the radioactivity of each tube is determined in a gamma counter. Duplicate determinations were performed for each incubation. The results are expressed in ng of angiotensin I generated per ml of generation medium per hour of incubation (ng/AI/ml/hr).
The results of this test on representative compounds of this invention appear in Table I, expressed as an IC50.
(1) The human plasma angiotensinogen derived from the blood of a person receiving oral contraceptive pills is purified by chromatography on a pepstatin-aminohexyl-agarose column.
(2) Human renin is prepared from human kidney.

SMILES	IC50 [nM]
CCCCOC(=O)C[C@H](NC(=O)[C@H](Cc1ccccc1)NP(=O)(OCC)OCC)C(=O)N[C@@H](CC1CCCCC1)[C@@H](O)[C@@H]1CCCO1	3100
CC(C)C[C@H](NP(=O)(ONC(=O)OCc1ccccc1)Oc1ccccc1)C(=O)N[C@@H](CC1CCCCC1)[C@@H](O)[C@@H]1CCCO1 (stereo partly shown)	1800
COP(=O)(CCCc1ccccc1)N[C@@H](CC(C)C)C(=O)N[C@@H](CC1CCCCC1)[C@@H](O)[C@@H]1CCCO1 (stereo partly shown)	51
CCOP(=O)(N[C@@H](CC1CCCCC1)C(=O)N[C@@H](CC(C)C)C(=O)N[C@@H](CC1CCCCC1)[C@@H](O)C1CCCO1)OCC (stereo partly shown)	3
CC(C)C[C@H](NP(=O)(OCCCc1ccccc1)OCCc1ccccc1)C(=O)N[C@@H](CC1CCCCC1)[C@@H](O)[C@@H]1CCCO1 (stereo partly shown)	16
CCOP(=O)(N[C@@H](Cc1ccc(OC)cc1)C(=O)N[C@@H](CC(C)C)C(=O)N[C@@H](CC1CCCCC1)[C@@H](O)[C@@H]1CCCO1)OCCBr (stereo partly shown)	0.52
CC(C)C[C@H](NP(=O)(OCCBr)OCCc1ccccc1)C(=O)N[C@@H](CC1CCCCC1)[C@@H](O)[C@@H]1CCCO1 (stereo partly shown)	140
CCOP(=O)(OCC)O[C@@H](Cc1ccccc1)C(=O)N[C@@H](CC(C)C)C(=O)N[C@@H](CC1CCCCC1)[C@@H](O)[C@@H]1CCCO1	3
CC(C)C[C@H](NP(=O)(OCCNCc1cccnc1)OCCc1ccccc1)C(=O)N[C@@H](CC1CCCCC1)[C@@H](O)[C@@H]1CCCO1 (single isomer, unassigned)	120
CCOP(=O)(N[C@@H](CC1CCCCC1)C(=O)N[C@@H](CC(C)C)C(=O)N[C@@H](CC1CCCCC1)[C@@H](O)[C@@H]1CCCO1)OCC	0.1
CCOP(=O)(N[C@@H](Cc1ccccc1)C(=O)N[C@@H](CC(C)C)C(=O)N[C@@H](CC1CCCCC1)[C@@H](O)[C@@H]1CCCO1)OCC	0.1
CC(C)COP(=O)(N[C@@H](Cc1ccccc1)C(=O)N[C@@H](CC(C)C)C(=O)N[C@@H](CC1CCCCC1)[C@@H](O)[C@@H]1CCCS1)OCCN1CCOCC1 (stereo partly shown)	3.5
CC(C)COP(=O)(N[C@@H](Cc1ccccc1)C(=O)N[C@@H](CC(C)C)C(=O)N[C@@H](CC1CCCCC1)[C@@H](O)[C@@H]1CCCS1)OCCBr (stereo partly shown)	0.71
CCOP(=O)(N[C@@H](Cc1ccccc1)C(=O)N[C@@H](CC(C)C)C(=O)N[C@@H](CC1CCCCC1)[C@@H](O)C1CCCO1)OCC (stereo partly shown)	0.2
CC(C)C[C@H](NP(=O)(OCCNCc1ccccn1)OCCc1ccccc1)C(=O)N[C@@H](CC1CCCCC1)[C@@H](O)[C@@H]1CCCO1 (single isomer, unassigned) [drawing 51]	83
CCOP(=O)(OCC)O[C@@H](Cc1ccccc1)C(=O)N[C@@H](CC(C)C)C(=O)N[C@@H](CC1CCCCC1)[C@@H](O)c1cccs1	290
CCOP(=O)(N[C@@H](Cc1ccccc1)C(=O)N[C@@H](CC(=O)O)C(=O)N[C@@H](CC1CCCCC1)[C@@H](O)[C@@H]1CCCO1)OCC	1000
CC(C)C[C@H](NP(=O)(OCCc1ccccc1)OCCN(C)C)C(=O)N[C@@H](CC1CCCCC1)[C@@H](O)[C@@H]1CCCO1 (single isomer, unassigned)	550
CC(C)C[C@H](NP(=O)(OCCCBr)OCCc1ccccc1)C(=O)N[C@@H](CC1CCCCC1)[C@@H](O)[C@@H]1CCCO1 (stereo partly shown)	55
CCOP(=O)(N[C@@H](Cc1ccccc1)C(=O)N[C@@H](CC(C)C)C(=O)N[C@@H](CC1CCCCC1)[C@@H](O)[C@H]1CCCO1)OCC	8.1
CC(C)C[C@H](NP(=O)(OCCNCc1ccccn1)OCCc1ccccc1)C(=O)N[C@@H](CC1CCCCC1)[C@@H](O)[C@@H]1CCCO1 (single isomer, unassigned) [drawing 50]	100
CCOP(=O)(OCC)O[C@@H](Cc1ccccc1)C(=O)N[C@@H](CC(C)C)C(=O)N[C@@H](CC1CCCCC1)[C@@H](O)c1ccco1	140
CC(=O)NCCOP(=O)(CCCc1ccccc1)N[C@@H](CC(C)C)C(=O)N[C@@H](CC1CCCCC1)[C@@H](O)[C@@H]1CCCO1 (stereo partly shown)	33
CC(C)C[C@H](NP(=O)(OCc1ccccc1)OCc1ccccc1)C(=O)N[C@@H](CC1CCCCC1)[C@@H](O)[C@@H]1CCCO1	27
CCOP(=O)(OCC)O[C@@H](CC1CCCCC1)C(=O)N[C@@H](CC(C)C)C(=O)N[C@@H](CC1CCCCC1)[C@@H](O)C1CCCO1 (stereo partly shown)	3.5
CCOP(=O)(OCC)O[C@@H](Cc1ccccc1)C(=O)N[C@@H](CC(C)C)C(=O)N[C@@H](CC1CCCCC1)[C@@H](O)C1CCCO1 (stereo partly shown)	1.5
CC(C)C[C@H](NP(=O)(Oc1ccccc1)Oc1ccccc1)C(=O)N[C@@H](CC1CCCCC1)[C@@H](O)[C@@H]1CCCO1	8100

Same assay, conditions: read-out: IC50 Molar Concentration, purified human plasma angiotensinogen, maleate buffer pH 6.0, one hour at 37° C., tested form: 2HCl

SMILES	IC50 [nM]
CC(C)C[C@H](NP(=O)(OCCNCc1cccnc1)OCCc1ccccc1)C(=O)N[C@@H](CC1CCCCC1)[C@@H](O)[C@@H]1CCCO1 (single isomer, unassigned)	82
CC(C)C[C@H](NP(=O)(OCCNCc1ccncc1)OCCc1ccccc1)C(=O)N[C@@H](CC1CCCCC1)[C@@H](O)[C@@H]1CCCO1 (stereo partly shown)	100

Same assay, conditions: read-out: IC50 Molar Concentration, purified human plasma angiotensinogen, maleate buffer pH 6.0, one hour at 37° C., tested form: HCl

SMILES	IC50 [nM]
CC(C)C[C@H](NP(=O)(OCCc1ccccc1)OCCN1CCNC(=O)C1)C(=O)N[C@@H](CC1CCCCC1)[C@@H](O)[C@@H]1CCCO1 (stereo partly shown)	270
CC(C)C[C@H](NP(=O)(OCCc1ccccc1)OCCN(C)C)C(=O)N[C@@H](CC1CCCCC1)[C@@H](O)[C@@H]1CCCO1 (single isomer, unassigned)	640
CC(C)C[C@H](NP(=O)(OCCNC1CCCCC1O)OCCc1ccccc1)C(=O)N[C@@H](CC1CCCCC1)[C@@H](O)[C@@H]1CCCO1 (stereo partly shown)	220
CCOP(=O)(N[C@@H](Cc1ccc(OC)cc1)C(=O)N[C@@H](CC(C)C)C(=O)N[C@@H](CC1CCCCC1)[C@@H](O)[C@@H]1CCCO1)OCCN(C)C (stereo partly shown)	33
CC(C)C[C@H](NP(=O)(OCCNCc1ccccc1)OCCc1ccccc1)C(=O)N[C@@H](CC1CCCCC1)[C@@H](O)[C@@H]1CCCO1 (stereo partly shown)	230
